Measured values reported in PubChem BioAssay AID624504 (Sanford-Burnham Center for Chemical Genomics, 2012).
The entries are a selection whose mix differs from that of the whole data set. Active and inactive are the calls of the source. No stated cut-off is given here; in the data, active means inhibition above about 22%; inactive means the rest.

Assay: fluorescence retest of MPTP screen hits in isolated mitochondria, single concentration (AID 624504);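 further: 0% = DMSO vehicle and 100% = positive control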
Conditions: membrane potential, Rhodamine 123 fluorescence, at 10 µM, stronger effect = higher value

Row | SMILES | inhibition
1 | Fc1ccc(CNC(=S)Nc2cccc(Cl)c2)cc1 | active: 91.7%
2 | O=[N+]([O-])c1ccc(NC(=S)NCc2ccc(F)cc2)cc1 | active: 90.6%
